# Assay results reported in PubChem BioAssay AID485298 (National Center for Advancing Translational Sciences (NCATS), 2010).
# This is a selection; strong and weak results do not stand in their true shares. Activity calls are given as the source filed them. Calls follow the shape of the dose curve; as a rule, active = well fitted activation curve with a large enough effect; inconclusive = small, poorly fitted or top-dose-only effect; inactive = no such curve, though single readings can be large or run the other way.
# Assay: qHTS Assay for Small Molecule Inhibitors of Mitochondrial Division or Activators of Mitochondrial Fusion; also: % of control where 0% means no effect; nearly all actives have a fitted effect of over 45% in size
# Conditions: S. cerevisiae fusion-defective mutant growth rescue, CellTiterGlo 48 h; series mostly up to 46.1 µM; growth rescue (activation): at the top concentration
# Text: NIH Chemical Genomics Center [NCGC] NIH Molecular Libraries Probe Production centers Network [MLPCN] MLPCN Grant: MH081279-01 Assay Submitter (PI): Jodi M. Nunnari NCGC Assay Overview: The budding yeast S. cerevisiae is a powerful system to study mitochondrial fusion. Unlike other organisms, yeast cells without functional mitochondrial DNA (mtDNA) can be propagated and studied as long as they maintain a mitochondrial compartment and are provided with a fermentable carbon source. When mitochondrial fusion is blocked in yeast, mitochondrial tubules rapidly fragment and division continues unopposed. Under conditions where fusion is compromised in mammalian cells, nearly identical changes in mitochondrial structure have been observed. Thus, these findings indicate that steady state mitochondrial structure in cells is a characteristic and specific indicator of fusion activity. Mounting evidence has pointed to a connection between mitochondrial dynamics and apoptosis in mammalian cells. These studies indicate that in mammalian cells mitochondrial dynamics are more integrated into cellular processes than in yeast cells and have evolved not only to distribute the organelle but also to aid in the regulation of cellular homeostasis. Mitochondrial fusion proteins attenuate apoptosis by inhibiting the release of cytochrome c from mitochondria, in part by controlling cristae structures. Thus, small molecules that inhibit mitochondrial […] may promote apoptosis and potentially act as novel chemotherapeutics and stimulation of apoptosis has become an attractive target of anti-cancer therapies. To identify inhibitors of mitochondrial division, we exploit the growth phenotypes of mitochondrial fusion-defective mutants. The temperature sensitive fusion alleles, such as fzo1-1 and mgm1-5, cause mitochondrial membranes to fragment in cells under non-permissive conditions and cells lose mtDNA, and are unable to grow in the presence of non-fermentable carbon source glycerol. Inhibiting mitochondrial division rescues growth. We have developed and optimized a luminescence cell viability assay in 1536 well format for the identification of inhibitors in the yeast mitochondrial fusion-defective assay.
# The yeast glycerol stocks where kindly supplied by the laboratory of Dr. Jodi Nunnari, University of California, Davis. All yeast glycerol stock solutions were stored in single use aliquots at -80C. The CellTiterGlo luminescence reagent, containing luciferase and luciferin, were purchased from Promega, and the reagents were stored according to manufacturer's instructions. The Buffer components for the YPEG yeast growth medium were purchased from Sigma-Aldrich (St. Louis, MO). YPEG growth medium: 1% (w/v) yeast extract, 2% (w/v) Bacto-peptone, 3% Ethanol, 3% glycerol, 0.4mM Tryptophan, 0.36mM Adenine. qHTS Assay Protocol: 1.#Dispense 2.5 ul yeast growth medium per 1536 well plate. 2.#Transfer 23 nl per well of compound to plate. 3.#Dispense 2.5 ul yeast solution at appropriate seeding density per well. 4.#Incubate for 48 hours at 37C. 5.#Dispense 5 ul of CellTiterGlow solution per well. 6.#Incubate at ambient for 10 minutes. 7.#Read using bio-luminescence protocol on Viewlux.
SMILES,growth rescue (activation),Potency
Cc1cc(=O)[nH]c(N[N+](=O)[O-])n1,inactive: 1.85%,
Cc1c2c(nc3ccccc13)SC(C(Cl)Cl)C2 (centres undefined),inactive: 4.77%,
CCC(C)N(CC(C)C)C(=S)SC(NC(C)=O)C(Cl)(Cl)Cl (centres undefined),inactive: 2.83%,
CCOC(=O)c1ccc(NC(=O)C(C)(CCl)SC)cc1 (centres undefined),inactive: -5.45%,
O=C(OC1CN2CCC1CC2)c1cccc([N+](=O)[O-])c1 (centres undefined),inactive: -2.12%,
O=C(COc1ccccc1)OC1CN2CCC1CC2 (centres undefined),inactive: -2.03%,
O=C(Nc1ccncc1[N+](=O)[O-])c1ccc([N+](=O)[O-])cc1[N+](=O)[O-],inactive: -27.5%,
COP1(=S)c2c(C)nn(CCC#N)c2N=C(c2ccc(F)cc2)N1C (centres undefined),inactive: 11.1%,
O=[N+]([O-])c1ccc(Nc2ccc(Oc3ccc([N+](=O)[O-])cc3[N+](=O)[O-])cc2)c([N+](=O)[O-])c1,inactive: 2.74%,
Cc1cc(SC(NC=O)C(Cl)(Cl)Cl)ncn1 (centres undefined),inactive: 13.5%,
O=P(Nc1ccccn1)(c1cccc2ccccc12)c1cccc2ccccc12,inactive: 3.36%,
CCOC(=O)Nc1cccc([As](=O)(O)O)c1,inactive: -0.0655%,
CCCCOc1ccc(C(=O)NCC2(N3CCCCC3)CCCCC2)cc1OC,inactive: -5.25%,
Cc1cc(SC(NC(=O)c2ccccc2)C(Cl)(Cl)Cl)nc(C(C)C)n1 (centres undefined),inactive: 12.8%,
CCOC(=O)Nc1ccc([As](=O)(O)O)c(O)c1,inactive: -4.09%,
O=[N+]([O-])c1cccc(NC2=NCC(CBr)S2)c1 (centres undefined),inactive: -4.84%,
O=C(O)CNc1ccc([As](=O)(O)O)cc1,inactive: 0.177%,
CC(C)(C)C(=O)NC(Sc1ccncn1)C(Cl)(Cl)Cl (centres undefined),inactive: 9.95%,
O=[N+]([O-])c1ncn(CCn2ncnc2[N+](=O)[O-])n1,inactive: -1.05%,
O=C(Nc1cc([As](=O)(O)O)ccc1O)c1ccccc1,inactive: 10.2%,

SMILES,growth rescue (activation),Potency
CC(C)=N/N=C(\N)N[N+](=O)[O-],inactive: 4.58%,
CN(C)C(=O)OCCc1n(C)cc[n+]1C,inactive: -8.2%,
CC1CCN(C(=O)Oc2c(Cl)cc(Cl)c3cccnc23)CC1,inactive: 5.43%,
Nc1ccc([As](=O)(O)c2ccc(N)cc2)cc1,inactive: -5.8%,
C[N+]1=C2C=CC=CC=C2SC12C([N+](=O)[O-])=CC([N+](=O)[O-])=C[C-]2[N+](=O)[O-] (centres undefined),inactive: -6.64%,
CCN(/C(=N/P(=O)(N1CCOCC1)N1CCOCC1)N1CCOCC1)c1ccc(OC)cc1,inactive: 0.061%,
CC(=O)N1C2C3N(C(C)=O)C1C1N(C(C)=O)C(C(N1C(C)=O)N3C(C)=O)N2C(C)=O,inactive: -0.101%,
O=[N+]([O-])c1cccc2n[nH]nc12,inactive: 2.23%,
Cc1ccc(NP(=O)(Oc2ccccc2)Oc2ccccc2)nc1,inactive: -4.56%,
O=[N+]([O-])c1cc([N+](=O)[O-])c(CCNc2ccccc2)c([N+](=O)[O-])c1,inactive: 4.09%,
CCc1nc2c(n1)c1c(non1O)c1c2no[n+]1[O-],inactive: -5.14%,
COc1ccc(C2=NCC(CBr)S2)cc1 (centres undefined),inactive: 2%,
CC(C)CC(=O)NC(Sc1ccc(Cl)cc1)C(Cl)(Cl)Cl (centres undefined),inactive: -1.93%,
Nc1cc(N)c2nonc2c1[N+](=O)[O-],inactive: -1%,
Oc1ccccc1CNc1ccccn1,inactive: 3.9%,
Cc1c2non([O-])c-2c(C)[n+](=O)[n+]1[O-],inactive: -11.4%,
O=C(NC(Sc1ccncn1)C(Cl)(Cl)Cl)c1ccccc1 (centres undefined),inactive: 4.83%,
COc1ccccc1OP(=O)(Nc1ccc(C)cn1)Oc1ccccc1OC,inactive: -1.94%,
Cc1ccc(OP(=O)(Nc2nccs2)Oc2ccc(C)cc2)cc1,inactive: -5.15%,
Clc1ccc(Cl)c(NC2=NCC(CBr)S2)c1 (centres undefined),inactive: -12.5%,

SMILES,growth rescue (activation),Potency
CN1CCCC(OC(=O)C(c2ccccc2)c2ccccc2)C1 (centres undefined),inactive: 1.34%,
NC(=O)c1cc([N+](=O)[O-])cc([N+](=O)[O-])c1N,inactive: -1.67%,
CN(C(=O)Cc1ccc(Cl)c(Cl)c1)[C@H]1CCCC[C@H]1N1CCCC1,inactive: 1.98%,
Cc1ccc(N/C(=N/P(=O)(N2CCOCC2)N2CCOCC2)N2CCOCC2)cc1,inactive: 0.826%,
CCN(N=Nc1nonc1N)c1nonc1N,inactive: -7.59%,
O=[N+]([O-])c1cc([N+](=O)[O-])c(CCN2CCOCC2)c([N+](=O)[O-])c1,inactive: 6.04%,
CCOP(=O)(Nc1ccccc1)OCC,,inactive
Cc1cc(SC(NC(=O)c2ccc(F)cc2)C(Cl)(Cl)Cl)ncn1 (centres undefined),inactive: 6.34%,
CN(C(=O)Cc1ccc(Cl)c(Cl)c1)[C@H]1CCCC[C@@H]1N1CCCC1,,inactive
Cc1ccc(NP(=O)(Oc2ccccc2F)Oc2ccccc2F)nc1,inactive: 3.39%,
O=C(O)c1ccccc1[As](=O)(O)O,inactive: -13.9%,
CC(=O)Nc1ccc([As](=O)(O)O)cc1,inactive: 4.46%,
O=P(Nc1nc2ccc(Cl)cc2s1)(c1ccccc1)c1ccccc1,inactive: 13.4%,
Cc1ccccc1OP(=O)(Nc1ccccn1)Oc1ccccc1C,inactive: 10.3%,
CN(C)C(=O)Oc1noc2ccccc12,inactive: 2.07%,
O=c1c2cc([N+](=O)[O-])ccc2[nH]c2c([N+](=O)[O-])cc([N+](=O)[O-])cc12,inactive: -32.7%,
COC(=O)c1cc2c(s1)N=C(c1ccccc1)N(C)P2(=O)N1CCOCC1 (centres undefined),inactive: 1.11%,
Cc1ccc(OP(=O)(Nc2ccccn2)Oc2ccc(C)cc2)cc1,inactive: 12.8%,
CC(=O)NC(SC(=S)N(CC(C)C)CC(C)C)C(Cl)(Cl)Cl (centres undefined),inactive: 0.847%,
